pIC50: −log10 of the molar value.

The chains behind the UniProt entries cited, without tags or fusion partners. Where a name states a change or a piece, a line headed by the entry shows the natural chain unless it says otherwise.
UniProt P23458: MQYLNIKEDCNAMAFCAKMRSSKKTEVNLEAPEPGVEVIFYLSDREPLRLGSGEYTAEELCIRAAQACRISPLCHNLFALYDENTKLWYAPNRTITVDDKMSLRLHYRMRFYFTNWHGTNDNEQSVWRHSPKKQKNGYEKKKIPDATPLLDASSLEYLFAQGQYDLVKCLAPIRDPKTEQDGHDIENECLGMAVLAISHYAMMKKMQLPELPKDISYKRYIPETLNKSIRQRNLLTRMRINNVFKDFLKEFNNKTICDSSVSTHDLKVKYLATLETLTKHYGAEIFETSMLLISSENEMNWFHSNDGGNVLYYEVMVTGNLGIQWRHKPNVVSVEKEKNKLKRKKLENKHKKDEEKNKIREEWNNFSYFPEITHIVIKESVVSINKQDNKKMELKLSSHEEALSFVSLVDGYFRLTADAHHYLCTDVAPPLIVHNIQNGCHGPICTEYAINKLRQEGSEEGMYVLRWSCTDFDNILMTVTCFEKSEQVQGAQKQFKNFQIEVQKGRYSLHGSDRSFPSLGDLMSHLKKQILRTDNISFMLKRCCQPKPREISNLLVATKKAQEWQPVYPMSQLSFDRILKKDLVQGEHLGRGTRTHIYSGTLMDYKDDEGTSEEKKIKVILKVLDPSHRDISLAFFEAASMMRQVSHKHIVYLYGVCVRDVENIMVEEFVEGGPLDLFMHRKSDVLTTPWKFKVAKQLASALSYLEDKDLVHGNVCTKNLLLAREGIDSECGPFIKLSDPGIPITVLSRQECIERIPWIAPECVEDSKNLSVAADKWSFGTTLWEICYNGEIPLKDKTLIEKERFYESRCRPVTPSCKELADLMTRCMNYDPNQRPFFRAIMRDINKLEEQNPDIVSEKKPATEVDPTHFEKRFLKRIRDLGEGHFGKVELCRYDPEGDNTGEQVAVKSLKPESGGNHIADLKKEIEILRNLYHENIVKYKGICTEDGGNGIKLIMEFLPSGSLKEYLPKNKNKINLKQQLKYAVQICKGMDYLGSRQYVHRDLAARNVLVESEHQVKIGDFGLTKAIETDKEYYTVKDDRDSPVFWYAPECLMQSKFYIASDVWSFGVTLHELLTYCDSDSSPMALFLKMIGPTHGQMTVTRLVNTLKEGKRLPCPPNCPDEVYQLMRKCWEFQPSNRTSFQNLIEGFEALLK
UniProt P52333: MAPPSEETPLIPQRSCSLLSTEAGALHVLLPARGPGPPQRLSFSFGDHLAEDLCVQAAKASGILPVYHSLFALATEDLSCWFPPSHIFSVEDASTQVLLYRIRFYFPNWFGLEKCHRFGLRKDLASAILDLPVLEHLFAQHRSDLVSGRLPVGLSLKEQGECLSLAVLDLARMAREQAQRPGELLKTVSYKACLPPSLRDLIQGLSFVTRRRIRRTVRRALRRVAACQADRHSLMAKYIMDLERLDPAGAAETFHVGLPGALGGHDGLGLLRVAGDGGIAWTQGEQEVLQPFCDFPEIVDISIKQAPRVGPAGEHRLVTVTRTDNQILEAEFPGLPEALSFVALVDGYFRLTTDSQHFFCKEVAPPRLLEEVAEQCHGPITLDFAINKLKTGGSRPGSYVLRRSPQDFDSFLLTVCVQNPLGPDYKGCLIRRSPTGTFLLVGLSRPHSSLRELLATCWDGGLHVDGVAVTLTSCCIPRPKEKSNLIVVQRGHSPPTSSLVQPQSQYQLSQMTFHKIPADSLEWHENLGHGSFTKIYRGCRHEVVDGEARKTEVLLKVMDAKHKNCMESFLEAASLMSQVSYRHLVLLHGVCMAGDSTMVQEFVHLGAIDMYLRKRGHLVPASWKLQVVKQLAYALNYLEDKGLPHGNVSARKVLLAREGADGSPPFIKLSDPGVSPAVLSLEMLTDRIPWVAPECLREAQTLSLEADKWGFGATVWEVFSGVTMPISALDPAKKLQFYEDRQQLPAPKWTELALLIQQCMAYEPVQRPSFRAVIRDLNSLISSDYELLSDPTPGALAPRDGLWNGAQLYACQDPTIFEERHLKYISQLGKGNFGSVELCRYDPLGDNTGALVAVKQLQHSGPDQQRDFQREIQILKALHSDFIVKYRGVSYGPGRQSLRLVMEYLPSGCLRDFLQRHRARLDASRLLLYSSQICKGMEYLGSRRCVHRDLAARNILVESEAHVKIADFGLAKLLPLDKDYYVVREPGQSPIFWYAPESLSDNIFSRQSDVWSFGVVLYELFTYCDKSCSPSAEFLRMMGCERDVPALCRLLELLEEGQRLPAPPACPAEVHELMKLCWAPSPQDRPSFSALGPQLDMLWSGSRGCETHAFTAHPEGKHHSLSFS

The target of one assay is JAK1 (Homo sapiens (Human), UniProt P23458). The experiment in a line: JAK1 Kinase Assay Protocol. The format is biochemical. The note with it: GST-JAK1; ATP 100 μM; Caliper LabChip; read-out: LLE_JAK1 (IC50). As for the experimental part: JAK1 Kinase Assay Protocol
The assay reactions were performed in U-bottom 384-well plates. The final assay volume was 30 μl prepared from 15 μl additions of enzyme and substrates (fluoresceinated peptide and ATP) and test compounds in assay buffer (20 mM HEPES pH 7.4, 10 mM MgCl2, 25 mM beta-glycerol phosphate, 0.015% Brij35 and 4 mM DTT). The reaction was initiated by the combination of GST-JAK1 enzyme with substrates and test compounds. The reactions were incubated at room temperature for 3 hours and terminated by adding 60 μl of 35 mM EDTA to each sample. […] The final concentration of reagents in the assays was: ATP, 100 μM; fluoresceinated peptide, 1.5 μM; GST-JAK1, 12.5 nM; and DMSO, 1.6%. […] Compounds were dissolved at 10 mM in dimethylsulfoxide (DMSO) and evaluated at eleven concentrations. IC50 values were derived by non-linear regression analysis.

In a further assay the target is JAK3 (Homo sapiens (Human), UniProt P52333). Briefly: JAK3 Kinase Assay (Caliper / Filter protocols). In kind it is biochemical. The note with it: JAK3 kinase inhibition; ATP 8 μM; read-out: LLE_JAK3_FB (IC50). As for the experimental part:
JAK3 Kinase Assay Protocol (Caliper)
The assay reactions were performed in U-bottom 384-well plates. […] The reaction was initiated by the combination of GST-JAK3 enzyme with substrates and test compounds. The reactions were incubated at room temperature for 3 hours and terminated by adding 60 μl of 35 mM EDTA to each sample. […] Compounds were dissolved at 10 mM in dimethylsulfoxide (DMSO) and evaluated at eleven concentrations. IC50 values were derived by non-linear regression analysis.
JAK3 Kinase Assay Protocol (Filter)
Kinase reactions consisted of 5 ng of JAK3 enzyme, 30 uM CSKtide substrate, 0.2 μCi ^33P γ-ATP, 8 μM ATP in 30 μl kinase buffer (50 mM Hepes, pH 8.0, 10 mM MgCl2, 1 mM EGTA, 2 mM DTT). Reactions were incubated for 30 minutes at room temperature and stopped by the addition of cold trichloroacetic acid (TCA) to a final concentration of 15%. TCA precipitates were collected onto 384 well phosphocellulose filters (Millipore) using a Platemate to transfer the reaction mixture, washed on an EMBLA plate washer and the filters were quantitated using a TopCount 384-well liquid scintillation counter. […] Compounds were dissolved at 10 mM in dimethylsulfoxide (DMSO) and evaluated at six concentrations, each in triplicate. The final concentration of DMSO in the assay equaled 2%. IC50 values were derived by non-linear regression analysis.

In general, pIC50 refers to −log10 of the IC50, conventionally taken in molar units. For `COc1ccc(S(=O)(=O)Nc2cc3c(N[C@@H]4CC[C@@](C)(O)C4(C)C)c(C(N)=O)cnn3c2)cc1` (racemic) [Example 24], the pIC50 on JAK1 is 6.64.

For `C[C@]1(F)CCC[C@H]1Nc1c(C(N)=O)cnn2cc(-c3cncc4ccccc34)cc12` (racemic) [Example 68], the pIC50 at JAK1 is 7.01.

With `Cn1nccc1-c1cc2c(N[C@H]3CC[C@@](C)(O)CC3)c(C(N)=O)cnn2c1` [Example 162, 4-((4-hydroxy-4-methylcyclohexyl)amino)-6-(1-methyl-1H-pyrazol-5-yl)pyrrolo[1,2-b]pyridazine-3-carboxamide], the pIC50 at JAK1 is 6.97.

Turning to `COc1cccc(-c2cc3c(NC4C5CC6CC4CC(O)(C6)C5)c(C(N)=O)cnn3c2)c1` (centres unmarked) [Example 176, 4-((5-hydroxyadamantan-2-yl)amino)-6-(3-methoxyphenyl)pyrrolo [1,2-b]pyridazine-3-carboxamide], at JAK1, the negative-log IC50 (pIC50) was 7.11.

Turning to `Cc1ccc(-c2cc3c(NC4C5CC6CC4CC(O)(C6)C5)c(C(N)=O)cnn3c2)cc1` (centres unmarked) [Example 187, 4-((5-hydroxyadamantan-2-yl)amino)-6-(4-methylphenyl)pyrrolo [1,2-b]pyridazine-3-carboxamide], the pIC50 on JAK3 was 8.21.
